Assay results from patent US20180015075A1, “METHODS AND COMPOSITIONS FOR TREATMENT OF VENOUS MALFORMATION” (Children's Hospital Medical Center, priority 2016, published 2018).

Legend:
HUVEC-TIE2-L914F = experiment: cells; conditions: Homo sapiens, read-out: Average proliferation Inhibition rate (%) L914F
HUVEC (non-transfected) = experiment: cells; conditions: Homo sapiens, read-out: Average proliferation Inhibition rate (%) HUVEC
HUVEC-TIE2-WT = experiment: cells; conditions: Homo sapiens, read-out: Average proliferation Inhibition rate (%) WT
[1] = test system: HUVEC TIE2-L914F VM lesions; experiment: In vivo murine model of VM; conditions: regression study, start day 9 (about 100 mm^2), 14 days; Ponatinib 30 mg/kg, rapamycin 2 mg/kg or both

| SMILES | inhibition at 20 µM (HUVEC-TIE2-L914F) | inhibition at 20 µM (HUVEC (non-transfected)) | inhibition at 20 µM (HUVEC-TIE2-WT) | VM lesions that regressed/shrunk (of 16) [1] |
| --- | --- | --- | --- | --- |
| O=P1(N(CCCl)CCCl)NCCCO1 (stereo not drawn) [Cyclophosphamide] | 2.88% | -1.06% | – | – |
| c1cc(CN2CCCNCCNCCCNCC2)ccc1CN1CCCNCCNCCCNCC1 [Plerixafor] | 5.99% | 3.15% | -2.43% | – |
| CO[C@H]1C[C@@H]2CC[C@@H](C)[C@@](O)(O2)C(=O)C(=O)N2CCCC[C@H]2C(=O)O[C@H]([C@H](C)C[C@@H]2CC[C@@H](O)[C@H](OC)C2)CC(=O)[C@H](C)/C=C(\C)[C@@H](O)[C@@H](OC)C(=O)[C@H](C)C[C@H](C)/C=C/C=C/C=C/1C [Sirolimus, Rapamycin] | – | – | – | 2/16 |
